# Columns and labels:
# hAChE inhibited by sarin = hAChE inhibited by sarin (Homo sapiens, UniProt P22303); assay: Reactivation of sarin-inhibited hAChE by oximes (modified Ellman assay, continuous method); details: OP: Sarin; 25° C.
# hAChE inhibited by VX = hAChE inhibited by VX (Homo sapiens, UniProt P22303); assay: Reactivation of VX-inhibited hAChE by oximes (modified Ellman assay, continuous method); details: for kr2 (second order reactivation rate constant) / kr (reactivation rate constant): OP: VX, 25° C.
# [1] = target: hAChE inhibited by paraoxon (Homo sapiens, UniProt P22303); assay: Reactivation of paraoxon-inhibited hAChE by oximes (modified Ellman assay, continuous method); details: OP: Paraoxon; 25° C.
# hAChE inhibited by tabun = hAChE inhibited by tabun (Homo sapiens, UniProt P22303); assay: Reactivation of tabun-inhibited hAChE by oximes (modified Ellman assay, continuous method); details: OP: Tabun; 25° C.
SMILES,kr2 (second order reactivation rate constant) (hAChE inhibited by sarin),kr (reactivation rate constant) (hAChE inhibited by sarin),kr2 (second order reactivation rate constant) (hAChE inhibited by VX),kr (reactivation rate constant) (hAChE inhibited by VX),kr2 (second order reactivation rate constant) [1],kr (reactivation rate constant) [1],kr2 (second order reactivation rate constant) (hAChE inhibited by tabun),kr (reactivation rate constant) (hAChE inhibited by tabun),efficacy in reactivation of VX-hAChE (in words) (hAChE inhibited by VX)
Cl.ON=Cc1csc(CCCCc2cccnc2)n1,1470 M⁻¹ s⁻¹,0.3 ± 0.002 min⁻¹,583 M⁻¹ s⁻¹,0.07 ± 0.002 min⁻¹,83 M⁻¹ s⁻¹,0.3 ± 0.02 min⁻¹,0 M⁻¹ s⁻¹,0 min⁻¹,
Cl.ON=Cc1nc(CCc2ccccc2)cs1,,,4330 M⁻¹ s⁻¹,0.61 ± 0.01 min⁻¹,,,,,highly selective efficacy
Cl.ON=Cc1csc(CCc2cccnc2)n1,450 M⁻¹ s⁻¹,0.08 ± 0.003 min⁻¹,167 M⁻¹ s⁻¹,0.06 ± 0.002 min⁻¹,15300 M⁻¹ s⁻¹,0.11 ± 0.004 min⁻¹,0 M⁻¹ s⁻¹,0 min⁻¹,
Cl.ON=Cc1cnc(C#CCCNc2ccnc3ccccc23)s1,0 M⁻¹ s⁻¹,0 min⁻¹,0 M⁻¹ s⁻¹,0 min⁻¹,0 M⁻¹ s⁻¹,0 min⁻¹,0 M⁻¹ s⁻¹,0 min⁻¹,
Cl.ON=Cc1csc(CCc2ncccn2)n1,,,130 M⁻¹ s⁻¹,0.38 ± 0.03 min⁻¹,,,,,highly selective efficacy
Cl.ON=Cc1nc(CCCCc2cccnc2)cs1,,,700 M⁻¹ s⁻¹,0.54 ± 0.01 min⁻¹,,,,,highly selective efficacy
Cl.ON=Cc1csc(CCc2ccccn2)n1,0 M⁻¹ s⁻¹,0 min⁻¹,0 M⁻¹ s⁻¹,0 min⁻¹,0 M⁻¹ s⁻¹,0 min⁻¹,0 M⁻¹ s⁻¹,0 min⁻¹,
Cl.ON=Cc1csc(CCc2ccncc2)n1,0 M⁻¹ s⁻¹,0 min⁻¹,0 M⁻¹ s⁻¹,0 min⁻¹,0 M⁻¹ s⁻¹,0 min⁻¹,0 M⁻¹ s⁻¹,0 min⁻¹,
Cl.ON=Cc1cnc(CCCCc2cccnc2)s1,167 M⁻¹ s⁻¹,0.1 ± 0.002 min⁻¹,11700 M⁻¹ s⁻¹,0.07 ± 0.0007 min⁻¹,450 M⁻¹ s⁻¹,0.3 ± 0.008 min⁻¹,0 M⁻¹ s⁻¹,0 min⁻¹,
Cl.ON=Cc1cnc(CCc2cccnc2)s1,26.7 M⁻¹ s⁻¹,0.18 ± 0.02 min⁻¹,130 M⁻¹ s⁻¹,0.2 ± 0.008 min⁻¹,33 M⁻¹ s⁻¹,0.6 ± 0.005 min⁻¹,0 M⁻¹ s⁻¹,0 min⁻¹,

# From patent US20230203024A1, “THIAZOLOXIME AND OXAZOLOXIME DERIVATIVES AS REACTIVATORS OF ORGANOPHOSPHOROUS NERVE AGENT (OPNA)-INHIBITED HUMAN ACETYLCHOLINESTERASE FOR THE TREATMENT OF NERVOUS AND/OR RESPIRATORY FAILURE AFTER INTOXICATION WITH OPNA” (published 2023)
